This test relates to characteristic stretching or writhing syndrome induced by phenylquinone. Nature of the test: standard phenylquinone writhing (PQW) test, analgesic activity. It is filed as in vivo, female white mice. The settings on record: 30 min before observation, mice.

“3-Cyclopropylmethyl-5- or -6-(1-hydroxyethyl)-1,2,3,4,5,6,7,7a-octahydro-4a,7-ethanobenzofuro[3,2-e]isoquinolin-9-ol [Example 10 (major)]” displayed an Effect ED50, Oral PQW of 0.75 mg/kg.

Regarding “3-Cyclopropylmethyl-5- or -6-(1-hydroxyethyl)-1,2,3,4,5,6,7,7a-octahydro-4a,7-ethanobenzofuro[3,2-e]isoquinolin-9-ol [Example 10 (minor)]”, the Effect ED50, Oral PQW came out at 15.6 mg/kg.
